Binding of CDR-mutated scFvs to a peptide of the spike HR2 region

Source: Li et al. 2023 (doi:10.1038/s41467-023-39022-2), MIT Lincoln Laboratory and A-Alpha Bio; data file from the FLAb repository.

Target peptide (SARS-CoV-2 spike, HR2 region): PDVDLGDISGINAS

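The starting antibody came from a phage panning campaign against this peptide. This is the validation round: designs drawn from the data on random variants, tested in the same kind of assay. Group labels follow the data file (Ctrl: baseline library sampled from a position-specific scoring matrix, with some repeated check sequences; Rand: our label for a block that the file lists under HC and that is probably the random mutants of the ten best first-round binders; GP: Gaussian process model; GPLM: also part of the Gaussian process libraries; HC: hill climbing; Gen: genetic algorithm; Gibbs: Gibbs sampling; a sequence that several methods proposed may carry one label only). Affinity was read by AlphaSeq, a pooled yeast mating assay with surface-displayed partners. Mating (16 h, 30 °C) was followed by selection of diploids and sequencing of their barcodes. Scores were corrected for input abundance and mapped to Kd with protein pairs of known affinity run in the same pool. Each pool was mated in six replicate cultures.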

Ab-14 is the parent antibody, in scFv form: VH, then the linker GGGGSGGGGSGGGGS, then VL. The light chain is unchanged in all variants.
VH: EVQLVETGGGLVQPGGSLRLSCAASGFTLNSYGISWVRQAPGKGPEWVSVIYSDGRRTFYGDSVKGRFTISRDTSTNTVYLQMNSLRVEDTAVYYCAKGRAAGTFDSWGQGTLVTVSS
VL: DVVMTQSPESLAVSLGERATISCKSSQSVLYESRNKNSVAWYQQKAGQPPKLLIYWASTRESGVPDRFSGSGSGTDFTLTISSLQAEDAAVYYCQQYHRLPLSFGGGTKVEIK

The parent's heavy chain CDRs are GFTLNSYGIS, VIYSDGRRTFYGDSVK, GRAAGTFDS; each variant's own CDRs replace them letter for letter.
Variants here have at most six changes.
The Kd shown is the geometric mean over detected replicates; a lower Kd is a better binder.
An entry "no signal" has no value in the source: the pair was not observed among the diploids in any replicate. This suggests poor binding but is not conclusive.
A sequence that the file lists under several names has all its replicates pooled.
Nonspecific signal, from three strains lacking the peptide, appeared in 1% of pairings of all heavy chain designs, centred on 120 nM (5% of these signals below 7.0 nM); values are not corrected for it.
Values of this round are not directly comparable with the first-round values of the same sequences.
In the paper, a design with two or fewer of six values counts as a poor binder.
Of ten entries with the parent sequence, four were seen in most replicates (averages 2.2 nM to 240 nM), three in one and three in none, so single entries are noisy.

Variant GFELNEYGIS / VIYSDGRRTFYGDSVK / GRQAGTFDS [GPLM_Gibbs] showed 870 pM (6 of 6 replicates).
Variant GFPLNSYGIS / VIYSDGRRTFYDDSVK / GRLAGTFDS [GP_HC] showed no signal (0 of 6 replicates).
Variant GFTLNMYGIS / VIYSDGRRCFYGDSTK / GRAAGTFDS [Ctrl] showed 60 nM (1 of 6 replicates).
Variant GFWLNEYGIS / VIYSDGRRTFYHDSVK / GRAAGTFDV [GP_HC] showed 30 nM (6 of 6 replicates).
Variant GFNLNSYGIS / VIYSDGRRTFYADPVK / GQEAGTFDS [GP_Gibbs] showed 1.4 nM (6 of 6 replicates).
Variant GFTLKSYGIS / VIYSDGRRTFYGDEVK / GRAAGTFDS [Ctrl] showed 31 nM (1 of 6 replicates).
Variant GFTLNQYGIS / VIYSEGRRTFYSDSVK / GRAAGFFDS [Rand] showed no signal (0 of 6 replicates).
Variant GFTLNSYGIS / VIYSDGRRTFYNDSVK / GDAAGTFDS [Ctrl] showed 190 nM (6 of 6 replicates).
Variant YFTLNEYGIS / VIYSDGRRTFYSDSVK / GRAAGFFTS [GP_HC] showed no signal (0 of 6 replicates).
Variant GFKLNSYGIS / VIYSDGRRTFYMDSVK / GQTAGTFDS [GP_HC] showed 3.8 nM (1 of 6 replicates).
Variant CFTLNSYGIS / VIYSDGRTTFYGWSVK / GRAALTFSS [Rand] showed no signal (0 of 6 replicates).
Variant GFTLNSYGIS / VIYSDGRRTFYGDSVK / GVLAGTFDT [GP_Gibbs] showed 5.1 nM (6 of 6 replicates).
Variant GFTINEYGIS / VIYSDGRRTFYQDSVK / GRAAGTFDS [Ctrl] showed 4.4 nM (6 of 6 replicates).
Variant GFTLNSYGIS / VIYSDGRRTFYGDSVK / GQVAGTFDS [GPLM_Gen] showed 19 nM (6 of 6 replicates).
Variant GFNLNSYGGS / VIYSDGLRTAYGDSVK / GRAAGTFDS [Ctrl] showed no signal (0 of 6 replicates).
Variant GFTLNEYGIS / VIYSDGRRTFYGDSVK / GRMAGTFDG [GP_HC] showed 29 nM (5 of 6 replicates).
Variant GFTLNDYGIS / VIYSDGRRTFYGDSVK / GRLAGTFDS [Ctrl+GPLM_Gen] showed 3.8 nM (11 of 12 replicates).
Variant GFTLDEYGIS / VIYSDGRRTFYGDSVK / GRAADTFDW [Ctrl] showed no signal (0 of 6 replicates).
Variant RFTLNCYGIS / VIYSDGRRTQYIDSVK / GRIAGTFDS [Rand] showed no signal (0 of 6 replicates).
Variant GFGLNSYGIS / VIYSDGRRTFYGDEVK / GRAAGHFDS [Ctrl] showed 74 nM (1 of 6 replicates).
Variant GFDLNSYGIS / VIYSDGRRTFYGDSVK / GRAAGHFFS [GPLM_HC] showed no signal (0 of 6 replicates).
Variant GFTLNSYGIS / VIYSDGRRTFYDDSVK / GAVAGTFDS [GP_HC] showed 6.8 nM (6 of 6 replicates).
Variant KFDLNEYGIS / VIYSDGRRTFYGDSVK / GRCAGTFDS [GP_HC] showed 37 nM (1 of 6 replicates).
Variant GFELNSYGIS / VIYSDGRRTFYTDSVK / GRNAGTFDS [GP_Gen] showed 79 nM (5 of 6 replicates).
Variant GFTLNSYGIS / VIYSDGRRTFYANSVK / GRAAFTFDS [Ctrl] showed no signal (0 of 6 replicates).
Variant GFTLNEYGIS / VIYSDGRRTFYGDSVK / GSAAGTFNS [Ctrl] showed 3.0 nM (6 of 6 replicates).
Variant GETLNSYGIS / VIYSDGRRTAYGDSVK / GDLAGTFDQ [Ctrl] showed 6.3 nM (6 of 6 replicates).
Variant GFNLNSYGIS / VIYSDGRRTFYGDSVK / GRAAGTFLV [Ctrl] showed no signal (0 of 6 replicates).
Variant GFTLDTYGIS / VIYSDGRRTFYGDKVK / GSAAGTFPS [Ctrl] showed 2.3 nM (6 of 6 replicates).
Variant GFSLNDYGIS / VIYSDGRRTFYGDSVK / GRAALTFDA [GPLM_HC] showed 110 nM (1 of 6 replicates).
Variant GFDLNSYGIS / VIYSDGRRTFYGDSVK / GMNAGTFDS [GP_Gibbs] showed 1.2 nM (6 of 6 replicates).
Variant GFTLNEYGTS / VIYSDGRRTFYGDSVK / GRAAVTFDQ [Rand] showed no signal (0 of 6 replicates).
Variant GNTLNDYGIS / VIYSDGRRTFYTDSVK / GRTAGTFDS [GP_HC] showed 7.1 nM (3 of 6 replicates).
Variant GFTLESYGIS / VIYSDGRRTFYGDAVK / GWTAGTFDS [GP_Gibbs] showed 18 nM (5 of 6 replicates).
Variant GFTLNNYGIS / VIYSDGRRTFYADSVK / GRAAGTFDS [GPLM_HC] showed 10 nM (6 of 6 replicates).
Variant GFDLNSYGIS / VIYSDGRRTFYGDSVK / GNVAGTFDS [GP_Gen] showed 8.6 nM (6 of 6 replicates).
Variant GFSLNSYGIS / VIYADGRRTFYGDNVK / GQAAGTFDS [GP_Gen] showed 270 pM (6 of 6 replicates).
Variant GFNLNSYGIS / VIYSDGRRTFYVDSVK / GKQAGTFDS [GPLM_Gibbs] showed 55 nM (5 of 6 replicates).
Variant GFTLNEYGIS / VIYSDGRRTFYGDSVK / GRAAGTFIL [GPLM_HC] showed no signal (0 of 6 replicates).
Variant GFDLNSYGGS / VIYSDGRRTFYGDSVK / GRAAGTSHN [Ctrl] showed no signal (0 of 6 replicates).
Variant GFPLNSYGVS / VIYSDGRRTFYGDSVK / GRAAGTFDS [Ctrl] showed 230 nM (3 of 6 replicates).
Variant GFTINDYGIS / VIYSDGRRTFYGDSVK / GQAAGTFDS [Ctrl] showed 5.4 nM (6 of 6 replicates).
Variant GFTLNDYGIS / VIYSDGRRTFYGDSVK / GRAALTFIG [Rand] showed no signal (0 of 6 replicates).
Variant GFTLNEYSIS / VIYSDGRRTFYGDSVK / GRSAGTFDS [Ctrl] showed no signal (0 of 6 replicates).
Variant GFTLNSYGIS / VIYSDGRRTFYGDSVK / GRIAGCFDS [Ctrl] showed 16 nM (1 of 6 replicates).

The first 7 variants above that were never detected:

The variant GFPLNSYGIS / VIYSDGRRTFYDDSVK / GRLAGTFDS [GP_HC] gave no signal (0 of 6 replicates).
The variant GFTLNQYGIS / VIYSEGRRTFYSDSVK / GRAAGFFDS [Rand] gave no signal (0 of 6 replicates).
The variant YFTLNEYGIS / VIYSDGRRTFYSDSVK / GRAAGFFTS [GP_HC] gave no signal (0 of 6 replicates).
The variant CFTLNSYGIS / VIYSDGRTTFYGWSVK / GRAALTFSS [Rand] gave no signal (0 of 6 replicates).
The variant GFNLNSYGGS / VIYSDGLRTAYGDSVK / GRAAGTFDS [Ctrl] gave no signal (0 of 6 replicates).
The variant GFTLDEYGIS / VIYSDGRRTFYGDSVK / GRAADTFDW [Ctrl] gave no signal (0 of 6 replicates).
The variant RFTLNCYGIS / VIYSDGRRTQYIDSVK / GRIAGTFDS [Rand] gave no signal (0 of 6 replicates).